Key:
Histone deacetylase 3 = Histone deacetylase 3 (Homo sapiens, UniProt O15379); experiment: Inhibition of recombinant HDAC3 (unknown origin) by homogeneous fluorescence release assay
[1] = target: T1, Protein deacetylase HDAC6 (Homo sapiens, UniProt Q9UBN7); experiment: Inhibition of recombinant HDAC6 (unknown origin) by homogeneous fluorescence release assay
T1 sequence (Q9UBN7 whole entry): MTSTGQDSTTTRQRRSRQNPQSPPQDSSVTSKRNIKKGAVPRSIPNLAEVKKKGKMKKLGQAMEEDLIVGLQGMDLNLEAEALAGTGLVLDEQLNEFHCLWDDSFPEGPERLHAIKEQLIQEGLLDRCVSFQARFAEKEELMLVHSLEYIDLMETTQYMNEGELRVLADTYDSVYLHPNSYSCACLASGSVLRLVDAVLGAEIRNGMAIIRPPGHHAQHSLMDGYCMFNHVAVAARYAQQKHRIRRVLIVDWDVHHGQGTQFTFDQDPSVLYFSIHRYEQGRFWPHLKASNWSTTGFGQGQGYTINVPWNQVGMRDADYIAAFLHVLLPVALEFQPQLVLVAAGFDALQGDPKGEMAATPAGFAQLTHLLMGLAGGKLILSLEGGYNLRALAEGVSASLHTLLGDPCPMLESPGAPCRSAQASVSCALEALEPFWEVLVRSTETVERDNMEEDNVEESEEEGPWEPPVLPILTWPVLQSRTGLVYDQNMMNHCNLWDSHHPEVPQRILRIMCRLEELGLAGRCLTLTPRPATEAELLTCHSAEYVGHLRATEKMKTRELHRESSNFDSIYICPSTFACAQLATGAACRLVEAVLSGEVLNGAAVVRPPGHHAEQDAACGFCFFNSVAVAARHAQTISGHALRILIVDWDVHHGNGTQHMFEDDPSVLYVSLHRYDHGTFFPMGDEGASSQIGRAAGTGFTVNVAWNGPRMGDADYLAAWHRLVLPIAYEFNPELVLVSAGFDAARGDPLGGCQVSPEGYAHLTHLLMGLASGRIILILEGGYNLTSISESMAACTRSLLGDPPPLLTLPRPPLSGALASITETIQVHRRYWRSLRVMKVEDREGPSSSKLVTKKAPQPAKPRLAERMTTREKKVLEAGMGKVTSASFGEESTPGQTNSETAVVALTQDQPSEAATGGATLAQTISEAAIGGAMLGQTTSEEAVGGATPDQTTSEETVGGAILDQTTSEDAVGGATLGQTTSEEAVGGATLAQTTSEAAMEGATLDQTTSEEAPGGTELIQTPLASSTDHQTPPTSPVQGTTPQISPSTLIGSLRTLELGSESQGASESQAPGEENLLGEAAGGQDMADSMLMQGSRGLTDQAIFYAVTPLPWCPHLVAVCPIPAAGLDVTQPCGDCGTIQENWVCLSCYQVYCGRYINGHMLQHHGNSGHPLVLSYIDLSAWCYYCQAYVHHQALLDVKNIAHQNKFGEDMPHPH

The chains behind the UniProt entries cited, without tags or fusion partners. Where a name states a change or a piece, a line headed by the entry shows the natural chain unless it says otherwise.
UniProt O15379: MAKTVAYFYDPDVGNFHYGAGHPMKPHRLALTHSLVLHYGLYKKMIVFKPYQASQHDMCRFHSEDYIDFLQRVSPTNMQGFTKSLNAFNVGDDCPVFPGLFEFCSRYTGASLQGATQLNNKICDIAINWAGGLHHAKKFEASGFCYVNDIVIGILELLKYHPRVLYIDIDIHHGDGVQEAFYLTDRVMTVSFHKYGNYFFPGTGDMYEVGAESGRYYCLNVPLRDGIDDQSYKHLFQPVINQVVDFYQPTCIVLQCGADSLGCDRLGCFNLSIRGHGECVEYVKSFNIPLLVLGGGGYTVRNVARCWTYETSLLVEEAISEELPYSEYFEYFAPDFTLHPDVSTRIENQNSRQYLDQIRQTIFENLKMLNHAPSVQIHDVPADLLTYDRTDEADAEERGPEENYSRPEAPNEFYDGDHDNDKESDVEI

`O=C(CCCCSc1nc(-c2ccc(-c3ccccc3)cc2)cc(=O)[nH]1)NO` was tested, and the IC50 (Histone deacetylase 3) was 20 nM and the IC50 [1] was 7 nM.

From ChEMBL document CHEMBL3425488, “Novel histone deacetylase inhibitors induce growth arrest, apoptosis, and differentiation in sarcoma cancer stem cells” (J Med Chem, 2015)
